Measurements from ChEMBL document CHEMBL1201862, “PubChem BioAssay data set” (2004).

Tested on: NCI-H23
Assay: inhibition of tumour cell growth, NCI panel, 48 h

SMILES: O=C(NC(=O)c1cn(C2OC(CO)C(O)C2O)c(=O)[nH]c1=O)OCc1ccccc1 (stereo unspecified)
- GI50: inactive: > 100 µM and inactive: 85.5 µM

“And” between values parts separate entries of the source, which are not always exact repeats. Equal entries are not always repeated.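 Growth conditions: 96-well plates. Treatment: test compound, 48 hours, 5 concentrations. Analysis: linear interpolation between bracketing concentrations; unreached endpoints set to highest concentration. Abbreviation: GI50, concentration required for 50% inhibition of growth.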 The source made the active and inactive calls. Cut-off read from the data, not from the text of the source: active = GI50 up to about 1.1 µM and inactive = higher.
